Where two headings read alike, the source gives them in different places.
rasagiline tartrate
solubility in citric acid solution (Granulation 1 with mannitol (55%)): high | solubility in citric acid solution (Granulation 2 without mannitol): high

Source: patent publication US8143315B2, “Salts of the active substance rasagiline” (priority 2006, dated 2012)
